Measured values published in patent publication US20250092067A1, “APT1 and APT2 Inhibitors and Uses Thereof” (Cornell University, priority 2021, published 2025).

Sequences of proteins named here, by UniProt entry; tags and fusion partners are left off.
UniProt O75608, whole entry: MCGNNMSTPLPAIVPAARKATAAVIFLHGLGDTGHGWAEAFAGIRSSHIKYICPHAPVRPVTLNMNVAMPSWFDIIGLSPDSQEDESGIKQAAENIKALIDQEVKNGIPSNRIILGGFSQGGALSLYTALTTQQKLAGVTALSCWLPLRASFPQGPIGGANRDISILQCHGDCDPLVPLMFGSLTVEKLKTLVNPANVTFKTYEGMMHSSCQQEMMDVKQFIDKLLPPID
UniProt O95372, whole entry: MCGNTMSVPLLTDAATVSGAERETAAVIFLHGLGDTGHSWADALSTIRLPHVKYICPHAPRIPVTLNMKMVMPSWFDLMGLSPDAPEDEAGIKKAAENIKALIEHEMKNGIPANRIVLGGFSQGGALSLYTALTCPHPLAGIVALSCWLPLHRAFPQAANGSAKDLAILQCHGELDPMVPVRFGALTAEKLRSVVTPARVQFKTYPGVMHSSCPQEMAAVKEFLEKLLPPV

What was measured:
APT1 = APT1 (Homo sapiens, UniProt O75608); experiment: APT1 enzymatic assay, resorufin acetate as fluorogenic substrate; format: biochemical
APT2 = APT2 (Homo sapiens, UniProt O95372); experiment: APT2 enzymatic assay, resorufin acetate as fluorogenic substrate; format: biochemical
[1] = read-out: IC50 APT1, Table 3, class symbols
[2] = read-out: IC50 APT2, Table 3, class symbols
[3] = read-out: IC50 (μM) APT1, Table 2, class symbols
[4] = read-out: IC50 (μM) APT2, Table 2, class symbols
[5] = read-out: IC50 APT1, Table 4, class symbols
[6] = read-out: IC50 APT2, Table 4, class symbols

Row | SMILES | IC50 (APT1; [1]) | IC50 (APT2; [2]) | also measured
1 | COc1ccc(N2CCN(C(=O)c3cc4c(s3)-c3ccc(Cl)cc3S(=O)(=O)C4)CC2)cc1 | > 40 µM | 0.1 to 1 µM | –
2 | N#Cc1ccc2c(c1)S(=O)(=O)Cc1cc(C(=O)N3CCN(c4ccc(C(F)(F)F)cc4)CC3)sc1-2 | > 40 µM | > 40 µM | –
3 | N#Cc1ccc2c(c1)-c1sc(C(=O)N3CCN(c4ccc(C(F)(F)F)cc4)CC3)cc1CS2(=O)=O | > 40 µM | 0.1 to 1 µM | –
4 | COc1ccc(N2CCN(C(=O)c3cc4cc(O)c5ccccc5c4s3)CC2)cc1 [KW5130, (5-Hydroxynaphtho[1,2-b]thiophen-2-yl) (4-(4-methoxyphenyl)piperazin-1-yl) methanone] | – | – | IC50 (APT1; [3]): > 40 µM; IC50 (APT2; [4]): 1 to 40 µM
5 | O=C(CN1CCN(C(=O)c2ccco2)CC1)Nc1cccc(B(O)O)c1 | – | – | IC50 (APT1; [3]): > 40 µM; IC50 (APT2; [4]): 1 to 40 µM
6 | COc1ccc(N2CCN(C(=O)c3cc4c(s3)-c3ccccc3B(O)O4)CC2)cc1 | – | – | IC50 (APT1; [3]): 0.1 to 1 µM; IC50 (APT2; [4]): 0.1 to 1 µM
7 | COc1ccc(N2CCN(C(=O)c3cc4c(s3)-c3ccc(F)cc3S(=O)(=O)C4)CC2)cc1 | > 40 µM | 0.1 to 1 µM | –
8 | CNc1ccc(N2CCN(C(=O)c3cc4c(s3)-c3ccccc3S(=O)(=O)C4)CC2)cc1 | – | – | IC50 (APT1; read-out: IC50 APT1, Table 3, class symbols, tested form: HCl): > 40 µM; IC50 (APT2; read-out: IC50 APT2, Table 3, class symbols, tested form: HCl): 1 to 40 µM
9 | O=C(c1cc2c(s1)-c1ccc(O)cc1S(=O)(=O)C2)N1CCN(c2ccc(C(F)(F)F)cc2)CC1 | > 40 µM | 0.1 to 1 µM | –
10 | COc1ccc(N2CCN(C(=O)c3cc4c(s3)-c3cc(OC)ccc3S(=O)(=O)C4)CC2)cc1 | > 40 µM | 0.1 to 1 µM | –
11 | CCOP(=O)(OCC)c1ccc2cc(C(=O)N3CCN(c4ccc(OC)cc4)CC3)ccc2c1 | – | – | IC50 (APT1; [5]): > 40 µM; IC50 (APT2; [6]): > 40 µM
12 | COc1ccc(N2CCN(C(=O)c3cc4c(s3)-c3ccc(C#N)cc3S(=O)(=O)C4)CC2)cc1 | > 40 µM | 0.1 to 1 µM | –
13 | COc1ccc(N2CCN(C(=O)c3ccc4cc(P(=O)(O)O)ccc4c3)CC2)cc1 | – | – | IC50 (APT1; [5]): > 40 µM; IC50 (APT2; [6]): > 40 µM
14 | CNc1ccc2c(c1)-c1sc(C(=O)N3CCN(c4ccc(OC)cc4)CC3)cc1CS2(=O)=O | > 40 µM | > 40 µM | –
15 | O=C(c1cc2c(s1)-c1cc(Cl)ccc1S(=O)(=O)C2)N1CCN(c2ccc(C(F)(F)F)cc2)CC1 | > 40 µM | 0.1 to 1 µM | –
16 | O=C(c1cc2c(s1)-c1ccccc1S(=O)(=O)C2)N1CCN(c2ccc(F)cc2)CC1 | > 40 µM | > 40 µM | –
17 | O=C(c1cc2c(s1)-c1cc(F)ccc1S(=O)(=O)C2)N1CCN(c2ccc(C(F)(F)F)cc2)CC1 | > 40 µM | > 40 µM | –
18 | COc1ccc(N2CCN(C(=O)c3cc4c(s3)-c3ccc(OC)cc3S(=O)(=O)C4)CC2)cc1 | > 40 µM | 0.1 to 1 µM | –
19 | N#Cc1ccc(N2CCN(C(=O)c3cc4c(s3)-c3ccccc3S(=O)(=O)C4)CC2)cc1 | > 40 µM | > 40 µM | –
20 | COc1ccc(N2CCN(C(=O)c3cc4c(s3)-c3cc(C#N)ccc3S(=O)(=O)C4)CC2)cc1 | > 40 µM | 0.1 to 1 µM | –
21 | COc1ccc(N2CCN(C(=O)c3cc4c(s3)-c3cc(F)ccc3S(=O)(=O)C4)CC2)cc1 | > 40 µM | 0.1 to 1 µM | –
22 | O=C(c1cc2c(s1)-c1ccccc1S(=O)(=O)C2)N1CCN(c2ccc(C(F)(F)F)cc2)CC1 | > 40 µM | 0.1 to 1 µM | –
23 | COc1ccc(N2CCN(C(=O)c3cc4c(s3)-c3cc(N(C)C)ccc3S(=O)(=O)C4)CC2)cc1 | > 40 µM | > 40 µM | –
24 | O=C(CN1CCN(C(=O)c2ccco2)CC1)Nc1ccc(B(O)O)cc1 | – | – | IC50 (APT1; [3]): 1 to 40 µM; IC50 (APT2; [4]): 0.1 to 1 µM
25 | COc1ccc2c(c1)-c1sc(C(=O)N3CCN(c4ccc(C(F)(F)F)cc4)CC3)cc1CS2(=O)=O | > 40 µM | 0.1 to 1 µM | –
26 | O=C(c1cc2c(s1)-c1ccccc1S(=O)(=O)C2)N1CCN(c2ccc(C(F)F)cc2)CC1 | > 40 µM | > 40 µM | –
27 | CC(C)(C)c1ccc(N2CCN(C(=O)c3cc4c(s3)-c3ccccc3S(=O)(=O)C4)CC2)cc1 | > 40 µM | 0.1 to 1 µM | –
28 | O=C(c1cc2c(s1)-c1ccc(Cl)cc1S(=O)(=O)C2)N1CCN(c2ccc(C(F)(F)F)cc2)CC1 | > 40 µM | 1 to 40 µM | –
29 | O=C(c1cc2c(s1)-c1cc(O)ccc1S(=O)(=O)C2)N1CCN(c2ccc(C(F)(F)F)cc2)CC1 | > 40 µM | > 40 µM | –

Read-outs that look alike come from different tables or passages of the source.
